Assay results published in patent US20110039815A1, “MACROCYCLIC METAL COMPLEXES FOR THEIR USE AS ANTICANCER AGENTS” (priority 2005, published 2011).

Key:
[1] = test system: non-cancerous ovarian OVEPI cells; test: Cell death / morphology of OVEPI cells in six well plates
[2] = test system: ovarian cancer cell line NUTU-19; test: Cell death / morphology of NUTU-19 cells in six well plates

## ^Me3TacnRhCl3 [formula 8]
[1]
  effect on cell morphology and viability (photos): close cell contact, good cell attachment and viability, and a lack of deleterious cell morphology changes
[2]
  effect on cell morphology and viability (photos): deleterious morphology changes and internal vesicle formation and elongation in addition to a loss of cell colony contact
